{
  "source": "ChEMBL document CHEMBL1135158",
  "about": "“Pyrrolo[2,3-d]pyrimidines containing diverse N-7 substituents as potent inhibitors of Lck” (Bioorg Med Chem Lett, 2002)",
  "target": "T1, Tyrosine-protein kinase ZAP-70 (Homo sapiens, UniProt P43403)",
  "T1 sequence (P43403 whole entry)": "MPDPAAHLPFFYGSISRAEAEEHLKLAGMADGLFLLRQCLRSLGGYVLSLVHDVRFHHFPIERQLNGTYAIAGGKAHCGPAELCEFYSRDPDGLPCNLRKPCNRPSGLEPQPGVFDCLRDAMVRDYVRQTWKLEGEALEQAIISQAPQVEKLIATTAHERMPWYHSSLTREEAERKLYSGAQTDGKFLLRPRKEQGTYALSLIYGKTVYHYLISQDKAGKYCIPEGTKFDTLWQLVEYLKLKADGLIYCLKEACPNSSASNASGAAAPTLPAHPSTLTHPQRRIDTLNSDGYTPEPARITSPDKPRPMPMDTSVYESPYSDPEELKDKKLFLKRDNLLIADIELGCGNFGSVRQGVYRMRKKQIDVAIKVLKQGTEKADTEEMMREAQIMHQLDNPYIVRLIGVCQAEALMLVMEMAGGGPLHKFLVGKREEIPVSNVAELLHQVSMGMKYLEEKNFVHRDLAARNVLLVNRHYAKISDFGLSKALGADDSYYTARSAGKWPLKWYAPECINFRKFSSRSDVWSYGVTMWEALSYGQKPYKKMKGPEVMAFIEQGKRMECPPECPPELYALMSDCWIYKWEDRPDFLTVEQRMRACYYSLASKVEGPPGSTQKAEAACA",
  "assay": "Inhibition of Zeta-chain (TCR) associated protein kinase 70kDa, Zap70 (Inactive at 1 mM ATP)",
  "data": [
    {"smiles": "CN1CCN([C@H]2CC[C@@H](n3cc(-c4ccc(Oc5ccccc5)cc4)c4c(N)ncnc43)CC2)CC1", "values": [
      {"measurement": "IC50", "value": "> 20", "unit": "µM"}
    ]}
  ]
}
